{"source": "ChEMBL document CHEMBL5321216", "about": "“Discovery of bipyridine amide derivatives targeting pRXRα-PLK1 interaction for anticancer therapy” (Eur J Med Chem, 2023)", "key": {"[1]": {"experiment": "Selectivity index, ratio of IC50 for human HeLa cells to IC50 for human MDA-MB-231 cells", "type": "functional"}, "[2]": {"experiment": "Selectivity index, ratio of IC50 for human MCF-10A cells to IC50 for human MDA-MB-231 cells", "type": "toxicity", "settings": "MCF-10A cells versus MDA-MB-231 cells, read-out: Ratio IC50"}, "[3]": {"experiment": "Selectivity index, ratio of IC50 for human HaCaT cells to IC50 for human MDA-MB-231 cells", "type": "toxicity", "settings": "HaCaT cells versus MDA-MB-231 cells, read-out: Ratio IC50"}, "[4]": {"experiment": "Selectivity index, ratio of IC50 for human L02 cells to IC50 for human MDA-MB-231 cells", "type": "toxicity", "settings": "L02 cells versus MDA-MB-231 cells, read-out: Ratio IC50"}}}
{"smiles": "O=C(/C=C/c1ccccc1)Nc1cc(-c2ccnc(N3CCC(CO)CC3)c2)ccn1", "values": [{"measurement": "Ratio IC50", "setting": "[1]", "result": 23.25}, {"measurement": "selectivity ratio", "setting": "[2]", "result": 1160}, {"measurement": "selectivity ratio", "setting": "[3]", "result": 3.19}, {"measurement": "selectivity ratio", "setting": "[4]", "result": 4}]}
